Patent US20020192161A1, “Animal model for evaluating analgesics” (priority 2001, published 2002)

What was measured:
[1] = Bioavailability of oral ibuprofen crushed tablets in control rats; assay type: in vivo, Sprague-Dawley rats; conditions: 20 mg/kg ibuprofen oral as crushed tablets
Experimental: (§1) The animal models are Adult male Sprague-Dawley rats with body weight of 250-300 g, and which were cared for in accordance with the principles and guidelines of the Canadian Council of Animal Care. All rats were catheterized in the right jugular vein for sample collection.
(§2) The tablets were crushed gently and small pieces were administered into the stomach via a plastic tube followed by 0.5 mL tap water. […] They had free access to water.

[2] = Bioavailability of oral ibuprofen formulations in vagal-suppressed (propantheline-treated, Pain Model) rats; assay type: in vivo, Sprague-Dawley rats; conditions: 20 mg/kg ibuprofen oral as crushed tablets
Experimental: as §1
An animal model having suppressed vagal properties were produced by administering (intraperitoneal injection) to the rats two 20 mg/kg doses of propantheline (test, n=6), an anticholinergic agent with known vagal suppressive properties, the first dose at 2 hours prior to administration of an NSAID, and the second at 1 hour prior.
as §2

SMILES: CC(C)Cc1ccc(C(C)C(=O)O)cc1 (racemic) [ibuprofen, (±)-2-(4-Isobutylphenyl)propionic acid]
- AUC (0-1) [1]: 48.7 μg/h/mL^−1
- AUC (0-8) [2]: 81.8 μg/h/mL^−1
